Where two headings read alike, the source gives them in different places. Blank lines part the entries; values can stand above or below the compound they belong to.
Assays:
[1] = test system: Human Total p21 in SJSA1 cells; assay: P21 ELISA assay; assay type: cell-based
HDM2 = HDM2 (Homo sapiens, UniProt Q00987); assay: FP Competition Blinding Assay | HDM2 IC50 (nM)
SJSA-1 cells = assay: Cell viability assay (MTT, 72 h) SJSA-1
MDM2 = MDM2 (Homo sapiens, UniProt Q00987); assay: Competitive fluorescence polarization assay for MDM2; assay type: binding; details: Table 26A; competitive FP
MDMX = biological target: T1, MDMX (Homo sapiens, UniProt O15151); assay: Competitive fluorescence polarization assay MDMX; assay type: binding; details: Table 26A; competitive FP
T1 sequence (O15151 1-125): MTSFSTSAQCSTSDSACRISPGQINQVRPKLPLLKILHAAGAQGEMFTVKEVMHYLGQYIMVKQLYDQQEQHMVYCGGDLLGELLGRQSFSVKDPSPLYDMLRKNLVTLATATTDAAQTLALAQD

Protein sequences, listed by entry. Tags and fused reporters are not part of them. Residues count along the entry.
UniProt Q00987, whole entry, looked up: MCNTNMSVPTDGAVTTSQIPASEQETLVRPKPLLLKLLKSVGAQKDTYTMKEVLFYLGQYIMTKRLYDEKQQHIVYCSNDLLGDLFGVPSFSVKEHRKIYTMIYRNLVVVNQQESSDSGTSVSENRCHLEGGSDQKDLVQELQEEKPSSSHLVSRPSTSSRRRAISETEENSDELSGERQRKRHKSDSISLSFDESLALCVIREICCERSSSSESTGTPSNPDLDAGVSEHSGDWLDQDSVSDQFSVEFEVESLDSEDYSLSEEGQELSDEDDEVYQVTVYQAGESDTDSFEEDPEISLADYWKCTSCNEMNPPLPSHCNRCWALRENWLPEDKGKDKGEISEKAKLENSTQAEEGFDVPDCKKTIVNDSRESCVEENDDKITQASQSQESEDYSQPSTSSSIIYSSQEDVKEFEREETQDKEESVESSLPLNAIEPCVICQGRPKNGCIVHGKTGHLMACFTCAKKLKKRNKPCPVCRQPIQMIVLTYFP
UniProt Q00987, 1-125: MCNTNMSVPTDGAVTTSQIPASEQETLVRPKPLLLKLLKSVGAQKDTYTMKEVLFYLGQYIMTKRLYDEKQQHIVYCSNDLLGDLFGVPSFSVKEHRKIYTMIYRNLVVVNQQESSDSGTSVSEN

RKO cells = assay: Cell viability assay (MTT) RKO; details: read-out: RKO EC50 (72 h)
RKO-E6 cells = assay: Cell viability assay (MTT) RKO-E6; details: read-out: RKO-E6 EC50 (72 h)
SW-480 cells = assay: Cell viability assay (MTT) SW-480; details: read-out: SW480 EC50 (6 days)
HCT-116 cells = assay: Cell viability assay (MTT) HCT-116; details: read-out: HCT-116 EC50 (72 h)
[2] = Circular dichroism (CD) analysis of alpha-helicity; assay type: physicochemical; details: difference 50% TFE minus benign buffer, 222 nm
Protocol: Peptide solutions were analyzed by CD spectroscopy using a Jasco J-815 spectropolarimeter (Jasco Inc., Easton, Md.) with the Jasco Spectra Manager Ver.2 system software. A Peltier temperature controller was used to maintain temperature control of the optical cell. Results are expressed as mean molar ellipticity [θ] (deg cm^2dmol^−1) as calculated from the equation [θ]=θobs·MRW/10*1*c where θobs is the observed ellipticity in millidegrees, MRW is the mean residue weight of the peptide (peptide molecular weight/number of residues), 1 is the optical path length of the cell in centimeters, and c is the peptide concentration in mg/ml. Peptide concentrations were determined by amino acid analysis. Stock solutions of peptides were prepared in benign CD buffer (20 mM phosphoric acid, pH 2). The stocks were used to prepare peptide solutions of 0.05 mg/ml in either benign CD buffer or CD buffer with 50% trifluoroethanol (TFE) for analyses in a 10 mm pathlength cell. Variable wavelength measurements of peptide solutions were scanned at 4° C. from 195 to 250 nm, in 0.2 nm increments, and a scan rate 50 nm per minute. The average of six scans was reported.

[3] = read-out: SJSA-1 EC50 (72 h), MTT
[4] = read-out: SJSA-1 EC50 (72 h), Table 26B

Compound: 287 (LTFAEYWAQAAAAIA; Ac, NH2, staple, difluoro-Phe, Cba; N-term Ac; MOD_RES (3)..(3): 3,4-difluoro-Phe; MOD_RES (4)..(4): Alpha-Me R-azide 1,4 triazole (6 carbon) alanine olefin amino acid connected by an all-carbon crosslinker comprising one double bond; misc_feature (4)..(11): C) [compound 287]
p21 0.3 uM [1]: 97
p21 1 uM [1]: 398
p21 3 uM [1]: 986
p21 10 uM [1]: 2828
p21 30 uM [1]: 3410

IC50 (HDM2): 0.0228 µM
Compound: Ac- E T F $r8 A Y W A Q $ S -NH2 [SP-508]

EC50 (SJSA-1 cells; [3]): 15 to 30 µM
Compound: 333 (LTFAEFWAQAASALA; Ac, NH2, staple, non-natural residues; N-term Ac; MOD_RES (4)..(4): Alpha-Me R-azide 1,4 triazole (6 carbon) alanine olefin amino acid connected by an all-carbon crosslinker comprising one double bond; misc_feature (4)..(11): Crosslink between residues; MOD_RES () [compound 333]

Compound: CC(=O)N[C@@H](CC(C)C)C(=O)N[C@H](C(=O)N[C@@H](Cc1ccccc1)C(=O)N[C@]1(C)CSCCCCCCCSC[C@@](C)(C(=O)N[C@@H](C)C(=O)N[C@@H](C)C(=O)N[C@@H](C)C(=O)N[C@@H](C)C(=O)N[C@@H](C)C(=O)N[C@H](C)C(N)=O)NC(=O)[C@H](CC(C)C)NC(=O)[C@H](CCC(N)=O)NC(=O)[C@H](C)NC(=O)[C@H](Cc2c[nH]c3ccccc23)NC(=O)[C@H](Cc2ccc(O)cc2)NC(=O)[C@H](C)NC1=O)[C@@H](C)O [SP917, Ac-LTF%cs7AYWAQL%c7AAAAAa-NH2]
EC50 (SJSA-1 cells; [4]): > 30 µM

Compound: CC(=O)N[C@@H](CC(C)C)C(=O)N[C@H](C(=O)N[C@@H](Cc1ccccc1)C(=O)N[C@]1(C)CCCCCCn2cc(nn2)CCC[C@@](C)(C(=O)N[C@@H](C)C(=O)N[C@@H](C)C(=O)N[C@@H](C)C(=O)N[C@@H](C)C(=O)N[C@@H](C)C(=O)N[C@H](C)C(N)=O)NC(=O)[C@H](CC(C)C)NC(=O)[C@H](CCC(N)=O)NC(=O)[C@H](C)NC(=O)[C@H](Cc2c[nH]c3ccccc23)NC(=O)[C@H](Cc2ccc(O)cc2)NC(=O)[C@H](CCC(=O)O)NC1=O)[C@@H](C)O [SP451, Ac-LTF$4rn6EYWAQL$4a5AAAAAa-NH2]
EC50 (SJSA-1 cells; [4]): 5 to 15 µM

EC50 (SJSA-1 cells; [4]): < 5 µM
Compound: CC(=O)N[C@@H](CC(C)C)C(=O)N[C@H](C(=O)N[C@@H](Cc1ccccc1)C(=O)N[C@]1(C)CCCCCCn2nnc(c2I)CCC[C@@](C)(C(=O)N[C@@H](CO)C(=O)N[C@@H](C)C(=O)N[C@@H](C)C(N)=O)NC(=O)[C@H](CC2CCC2)NC(=O)[C@H](CCC(N)=O)NC(=O)[C@H](C)NC(=O)[C@H](Cc2c[nH]c3ccccc23)NC(=O)[C@H](Cc2ccc(O)cc2)NC(=O)[C@H](CCC(=O)O)NC1=O)[C@@H](C)O [SP457, Ac-LTF$4rn6EYWAQCba5I-$4a5SAA-NH2]

EC50 (SJSA-1 cells; [4]): > 30 µM
Compound: CC(=O)N[C@@H](CC(C)C)C(=O)N[C@H](C(=O)N[C@@H](C)C(=O)N[C@]1(C)CCCCCCn2cc(nn2)CCC[C@@](C)(C(=O)N[C@@H](CO)C(=O)N[C@@H](C)C(=O)N[C@@H](C)C(N)=O)NC(=O)[C@H](CC2CCC2)NC(=O)[C@H](CCC(N)=O)NC(=O)[C@H](C)NC(=O)[C@H](Cc2c[nH]c3ccccc23)NC(=O)[C@H](Cc2ccc(O)cc2)NC(=O)[C@H](CCC(=O)O)NC1=O)[C@@H](C)O [SP460, Ac-LTA$4rn6EYWAQCba$4a5SAA-NH2]

EC50 (SJSA-1 cells; [4]): > 30 µM
Compound: CC(=O)N[C@@H](CC(C)C)C(=O)N[C@H](C(=O)N[C@@H](C)C(=O)N[C@]1(C)CCCCCCn2nncc2CCC[C@@](C)(C(=O)N[C@@H](CO)C(=O)N[C@@H](C)C(=O)N[C@@H](C)C(N)=O)NC(=O)[C@H](CC2CCC2)NC(=O)[C@H](CCC(N)=O)NC(=O)[C@H](C)NC(=O)[C@H](Cc2c[nH]c3ccccc23)NC(=O)[C@H](Cc2ccc(O)cc2)NC(=O)[C@H](CCC(=O)O)NC1=O)[C@@H](C)O [SP459, Ac-LTA$5rn6EYWAQCba$5a5SAA-NH2]

Compound: 286 (LTFAAYWAQAAAALA; Ac, NH2, staple, Cba, Nle; N-term Ac; MOD_RES (4)..(4): Alpha-Me R-azide 1,4 triazole (6 carbon) alanine olefin amino acid connected by an all-carbon crosslinker comprising one double bond; misc_feature (4)..(11): Crosslink between residues; MOD_RES () [compound 286]
p21 0.3 uM [1]: 481
p21 1 uM [1]: 1351
p21 3 uM [1]: 2882
p21 10 uM [1]: 3383
p21 30 uM [1]: 2479

EC50 (SJSA-1 cells; [4]): 5 to 15 µM
Compound: Ac-LTF%csBphAYWAQL%cBphAAAAAa-NH2 [SP919]

Compound: 315 (LTFAAYWAQLAAAAAAA; Ac, NH2, hydrocarbon staple; N-term Ac; MOD_RES (4)..(4): Alpha-Me R-azide 1,4 triazole (6 carbon) alanine olefin amino acid connected by an all-carbon crosslinker comprising one double bond; misc_feature (4)..(11): Crosslink between residues; MOD_RES () [compound 315]
IC50 (MDM2): 0.01 to 0.1 µM
Ki (MDM2): < 0.01 µM
IC50 (MDMX): 0.01 to 0.1 µM
Ki (MDMX): 0.01 to 0.1 µM
EC50 (RKO cells): < 5 µM
EC50 (RKO-E6 cells): 15 to 30 µM
EC50 (SW-480 cells): < 5 µM
EC50 (HCT-116 cells): < 5 µM

Compound: CC(=O)N[C@@H](CC(C)C)C(=O)N[C@H](C(=O)N[C@@H](Cc1ccccc1)C(=O)N[C@]1(C)CCCCCCn2cc(nn2)CCC[C@@](C)(C(=O)N[C@@H](C)C(=O)N[C@@H](C)C(=O)N[C@@H](C)C(=O)N[C@@H](C)C(=O)N[C@@H](C)C(=O)N[C@H](C)C(N)=O)NC(=O)[C@H](CC(C)C)NC(=O)[C@H](CCC(N)=O)NC(=O)[C@H](C)NC(=O)[C@H](Cc2c[nH]c3ccccc23)NC(=O)[C@H](Cc2ccc(O)cc2)NC(=O)[C@H](C)NC1=O)[C@@H](C)O [SP450, Ac-LTF$4rn6AYWAQL$4a5AAAAAa-NH2]
EC50 (SJSA-1 cells; [4]): 5 to 15 µM

Molar Ellipticity TFE − Molar Ellipticity Benign [2]: −21407.1 deg cm^2dmol^−1
Compound: CCCC[C@H](NC(=O)[C@H](C)NC(=O)[C@H](C)NC(=O)[C@]1(C)CCC/C=C/CCCCCC[C@@](C)(NC(=O)[C@H](Cc2ccccc2)NC(=O)[C@@H](NC(=O)[C@H](CC(C)C)NC(C)=O)[C@@H](C)O)C(=O)N[C@@H](C)C(=O)N[C@@H](Cc2ccc(O)cc2)C(=O)N[C@@H](Cc2c[nH]c3ccccc23)C(=O)N[C@@H](C)C(=O)N[C@@H](CCC(N)=O)C(=O)N[C@@H](CC(C)C)C(=O)N1)C(=O)N[C@@H](C)C(N)=O [compound 69]

EC50 (SJSA-1 cells; [4]): > 30 µM
Compound: 5-FAM-BaLTA$5rn6EYWAQCba$5a5SAA-NH2 [SP464]

Compound: 13 (LTFAAYWAALASAA; Ac, NH2, hydrocarbon staples; N-term Ac; MOD_RES (4)..(4): Alpha-Me R-azide 1,4 triazole (6 carbon) alanine olefin amino acid connected by an all-carbon crosslinker comprising one double bond; misc_feature (4)..(9): Crosslink between residues; MOD_RES (9) [compound 13]
EC50 (SJSA-1 cells; [3]): 5 to 15 µM

Compound: 12 (LTFAAYWAALASAL; Ac, NH2, hydrocarbon staples, Nle; N-term Ac; MOD_RES (4)..(4): Alpha-Me R-azide 1,4 triazole (6 carbon) alanine olefin amino acid connected by an all-carbon crosslinker comprising one double bond; misc_feature (4)..(9): Crosslink between residues; MOD_RES (9) [compound 12]
EC50 (SJSA-1 cells; [3]): 15 to 30 µM

EC50 (SJSA-1 cells; [4]): 5 to 15 µM
Compound: 5-FAM-BaLTF$4rn6EYWAQCba$4a5SAA-NH2 [SP461]

EC50 (SJSA-1 cells; [4]): > 30 µM
Compound: Ac-LTF$5rn6AYWAQL$5a5AAAAAa-NH2 [SP452]

EC50 (SJSA-1 cells; [3]): 15 to 30 µM
Compound: 155 (LTFAEYWAQLASAA; Ac, NH2, staple, 3-Cl-Phe; N-term Ac; MOD_RES (3)..(3): 3-chloro-Phe; MOD_RES (4)..(4): Alpha-Me R-azide 1,4 triazole (6 carbon) alanine olefin amino acid connected by an all-carbon crosslinker comprising one double bond; misc_feature (4)..(11): Cross) [compound 155]
